Like-named read-outs stand apart in the source and are kept apart here.
Tests used:
[1] = test system: Escherichia coli WP2 uvrA
Protocol: (§1) Bacterial strains used were Salmonella typhimurium TA97a (National Center for Type Culture Collection NTCC, 506391), S. typhimurium TA98 (NTCC, 506392), S. typhimurium TA100 (NTCC, 506395), S. typhimurium TA1535 (NTCC, 506396), and Escherichia coli WP2 uvrA (CHI Scientific, Co., Ltd., product number: 6-1705). To prepare a drug delivery formulation, distilled water was used as a carrier to prepare a suspension (100 mg/mL) for a test item. […] Therefore, bacteria in samples for the test item were removed by a mechanical means. In the process of mixing the formulation, any soluble components for the test item was dissolved in the carrier, and then, residual bacteria were removed by centrifugation (4° C.; 8000 rpm; 10 min). After centrifugation, liquid supernatant was removed and sterile filtration was performed with a 0.22 μm filter.
(§2) In the confirmatory mutation research, detection was performed at 15.81, 50, 158.1, 500, 1581, and 5000 μg/plate. The maximum concentration was recommended by current regulations and guidelines. […] The survival rate of test bacterial cells was checked through plate experiments in each test. If there is a dosage-related increase in the number of revertants, it is considered that the test item has mutagenicity, and/or a reproducible biology-related positive reaction targeting at least one dosage group occurs in at least one strain with or without metabolic activation.

[2] = test system: S. typhimurium TA100; conditions: TA100 +S9
Protocol: as §1, §2

[3] = test system: S. typhimurium TA1535
Protocol: as §1, §2

[4] = test system: S. typhimurium TA98
Protocol: as §1, §2

[5] = test system: Salmonella typhimurium TA97a, TA98, TA100, TA1535 and Escherichia coli WP2 uvrA; conditions: bacteria-free filtered supernatant of the test item, up to 5000 μg/plate, with or without S9
Protocol: as §1, §2

[6] = test system: Salmonella typhimurium TA97a
Protocol: as §1, §2

Substance: Akkermansia muciniphila [AKK PROBIO]
- Number of revertant mutants per plate (mean ± standard deviation) ([1]; Escherichia coli WP2A uvr +S9): 130.80
- Number of revertant mutants per plate (mean ± standard deviation) ([1]; Escherichia coli WP2A uvr −S9): 113.60
- Number of revertant mutants per plate (mean ± standard deviation) [2]: 52.00
- Number of revertant mutants per plate (mean ± standard deviation) ([3]; TA1535 +S9): 12.40
- Number of revertant mutants per plate (mean ± standard deviation) ([3]; TA1535 −S9): 10.00
- Number of revertant mutants per plate (mean ± standard deviation) ([4]; TA98 +S9): 31.60
- Number of revertant mutants per plate (mean ± standard deviation) ([4]; TA98 −S9): 36.80
- mutagenicity [5]: no mutagenicity
- Number of revertant mutants per plate (mean ± standard deviation) ([6]; TA97a +S9): 101.80
- Number of revertant mutants per plate (mean ± standard deviation) ([6]; TA97a −S9): 98.20

From patent US12606795B2, “Akkermansia muciniphila and product and application thereof” (Thankcome Biological Science and Technology (SuZhou) Co., …, priority 2023, dated 2026)
